Measurements as given in patent US20070212677A1, “Identifying off-target effects and hidden phenotypes of drugs in human cells” (Odyssey Thera, Inc., priority 2004, published 2007).

Sequences of proteins named here, by UniProt entry; tags and fusion partners are left off. Residues count along the entry.
UniProt P37231, 29-505: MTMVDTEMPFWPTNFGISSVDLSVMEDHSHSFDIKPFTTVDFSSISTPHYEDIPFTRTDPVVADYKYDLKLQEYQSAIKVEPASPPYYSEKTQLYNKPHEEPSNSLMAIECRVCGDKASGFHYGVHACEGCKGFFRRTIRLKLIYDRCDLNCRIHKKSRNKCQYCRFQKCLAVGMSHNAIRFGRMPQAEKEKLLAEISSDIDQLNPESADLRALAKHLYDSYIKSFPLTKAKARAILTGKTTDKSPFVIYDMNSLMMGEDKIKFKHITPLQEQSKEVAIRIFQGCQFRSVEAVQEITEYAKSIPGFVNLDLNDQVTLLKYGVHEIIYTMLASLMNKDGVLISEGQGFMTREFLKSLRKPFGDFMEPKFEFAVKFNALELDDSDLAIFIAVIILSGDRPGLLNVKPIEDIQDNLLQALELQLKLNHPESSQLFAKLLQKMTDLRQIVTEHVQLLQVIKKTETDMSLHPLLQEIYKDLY

Molecular target: RXR-alpha:PPAR-gamma (Homo sapiens, UniProt P37231)
Assay: RXR-alpha:PPAR-gamma PCA
Details: 480 minutes; FIG. 18

## CN(CCOc1ccc(C[C@H](Nc2ccccc2C(=O)c2ccccc2)C(=O)O)cc1)c1ccccn1 [GW1929]
  activity on RXRα:PPARγ assay: ligand-specific activity was detected
